According to paper PMC4613909:

Tests used:
[1] = molecular target: Artemia salina 60S ribosomal subunit (mature) (Artemia salina); test: ELISA; details: natural protein
[2] = molecular target: Artemia salina 60S ribosomal subunit (mature) (Artemia salina); test: iRIA (in vitro Ribosomes Interaction Assay, microwell solid-phase binding); 60S immobilised; time course of labeled eIF6 binding (on-rate) at low Mg2+
[3] = molecular target: Artemia salina 60S ribosomal subunit (mature) (Artemia salina); test: iRIA (in vitro Ribosomes Interaction Assay, microwell solid-phase binding); ribosomal particles immobilised; release of labeled eIF6 followed over time after maximal binding and wash (off-rate)
[4] = molecular target: Artemia salina 60S ribosomal subunit (mature) (Artemia salina); test: iRIA (in vitro Ribosomes Interaction Assay, microwell solid-phase binding); 60S immobilised; ten-fold unlabeled eIF6 coincubated with labeled eIF6

| Kd [1] [nM] | percent of maximal binding within two minutes [2] [%] | percent of eIF6 released at 30 min [3] [%] | percent displacement of labeled eIF6 by ten-fold unlabeled eIF6 [4] [%] | Substance |
| --- | --- | --- | --- | --- |
| 0.0628 | – | – | – | human full length N-terminal his-tagged eIF6 (from UniProt P56537 1-245) |
| – | 25 | 20 | 50 | human full length N-terminal his-tagged eIF6 (from UniProt P56537 1-245) (natural protein) |
